Results: ChEMBL document CHEMBL5154675, “Design, Synthesis, and Biological Evaluation of 1-(Indolizin-3-yl)ethan-1-ones as CBP Bromodomain Inhibitors for the Treatment of Prostate Cancer” (J Med Chem, 2022)

Sequences of proteins named here, by UniProt entry; tags and fusion partners are left off.
UniProt Q92793, whole entry: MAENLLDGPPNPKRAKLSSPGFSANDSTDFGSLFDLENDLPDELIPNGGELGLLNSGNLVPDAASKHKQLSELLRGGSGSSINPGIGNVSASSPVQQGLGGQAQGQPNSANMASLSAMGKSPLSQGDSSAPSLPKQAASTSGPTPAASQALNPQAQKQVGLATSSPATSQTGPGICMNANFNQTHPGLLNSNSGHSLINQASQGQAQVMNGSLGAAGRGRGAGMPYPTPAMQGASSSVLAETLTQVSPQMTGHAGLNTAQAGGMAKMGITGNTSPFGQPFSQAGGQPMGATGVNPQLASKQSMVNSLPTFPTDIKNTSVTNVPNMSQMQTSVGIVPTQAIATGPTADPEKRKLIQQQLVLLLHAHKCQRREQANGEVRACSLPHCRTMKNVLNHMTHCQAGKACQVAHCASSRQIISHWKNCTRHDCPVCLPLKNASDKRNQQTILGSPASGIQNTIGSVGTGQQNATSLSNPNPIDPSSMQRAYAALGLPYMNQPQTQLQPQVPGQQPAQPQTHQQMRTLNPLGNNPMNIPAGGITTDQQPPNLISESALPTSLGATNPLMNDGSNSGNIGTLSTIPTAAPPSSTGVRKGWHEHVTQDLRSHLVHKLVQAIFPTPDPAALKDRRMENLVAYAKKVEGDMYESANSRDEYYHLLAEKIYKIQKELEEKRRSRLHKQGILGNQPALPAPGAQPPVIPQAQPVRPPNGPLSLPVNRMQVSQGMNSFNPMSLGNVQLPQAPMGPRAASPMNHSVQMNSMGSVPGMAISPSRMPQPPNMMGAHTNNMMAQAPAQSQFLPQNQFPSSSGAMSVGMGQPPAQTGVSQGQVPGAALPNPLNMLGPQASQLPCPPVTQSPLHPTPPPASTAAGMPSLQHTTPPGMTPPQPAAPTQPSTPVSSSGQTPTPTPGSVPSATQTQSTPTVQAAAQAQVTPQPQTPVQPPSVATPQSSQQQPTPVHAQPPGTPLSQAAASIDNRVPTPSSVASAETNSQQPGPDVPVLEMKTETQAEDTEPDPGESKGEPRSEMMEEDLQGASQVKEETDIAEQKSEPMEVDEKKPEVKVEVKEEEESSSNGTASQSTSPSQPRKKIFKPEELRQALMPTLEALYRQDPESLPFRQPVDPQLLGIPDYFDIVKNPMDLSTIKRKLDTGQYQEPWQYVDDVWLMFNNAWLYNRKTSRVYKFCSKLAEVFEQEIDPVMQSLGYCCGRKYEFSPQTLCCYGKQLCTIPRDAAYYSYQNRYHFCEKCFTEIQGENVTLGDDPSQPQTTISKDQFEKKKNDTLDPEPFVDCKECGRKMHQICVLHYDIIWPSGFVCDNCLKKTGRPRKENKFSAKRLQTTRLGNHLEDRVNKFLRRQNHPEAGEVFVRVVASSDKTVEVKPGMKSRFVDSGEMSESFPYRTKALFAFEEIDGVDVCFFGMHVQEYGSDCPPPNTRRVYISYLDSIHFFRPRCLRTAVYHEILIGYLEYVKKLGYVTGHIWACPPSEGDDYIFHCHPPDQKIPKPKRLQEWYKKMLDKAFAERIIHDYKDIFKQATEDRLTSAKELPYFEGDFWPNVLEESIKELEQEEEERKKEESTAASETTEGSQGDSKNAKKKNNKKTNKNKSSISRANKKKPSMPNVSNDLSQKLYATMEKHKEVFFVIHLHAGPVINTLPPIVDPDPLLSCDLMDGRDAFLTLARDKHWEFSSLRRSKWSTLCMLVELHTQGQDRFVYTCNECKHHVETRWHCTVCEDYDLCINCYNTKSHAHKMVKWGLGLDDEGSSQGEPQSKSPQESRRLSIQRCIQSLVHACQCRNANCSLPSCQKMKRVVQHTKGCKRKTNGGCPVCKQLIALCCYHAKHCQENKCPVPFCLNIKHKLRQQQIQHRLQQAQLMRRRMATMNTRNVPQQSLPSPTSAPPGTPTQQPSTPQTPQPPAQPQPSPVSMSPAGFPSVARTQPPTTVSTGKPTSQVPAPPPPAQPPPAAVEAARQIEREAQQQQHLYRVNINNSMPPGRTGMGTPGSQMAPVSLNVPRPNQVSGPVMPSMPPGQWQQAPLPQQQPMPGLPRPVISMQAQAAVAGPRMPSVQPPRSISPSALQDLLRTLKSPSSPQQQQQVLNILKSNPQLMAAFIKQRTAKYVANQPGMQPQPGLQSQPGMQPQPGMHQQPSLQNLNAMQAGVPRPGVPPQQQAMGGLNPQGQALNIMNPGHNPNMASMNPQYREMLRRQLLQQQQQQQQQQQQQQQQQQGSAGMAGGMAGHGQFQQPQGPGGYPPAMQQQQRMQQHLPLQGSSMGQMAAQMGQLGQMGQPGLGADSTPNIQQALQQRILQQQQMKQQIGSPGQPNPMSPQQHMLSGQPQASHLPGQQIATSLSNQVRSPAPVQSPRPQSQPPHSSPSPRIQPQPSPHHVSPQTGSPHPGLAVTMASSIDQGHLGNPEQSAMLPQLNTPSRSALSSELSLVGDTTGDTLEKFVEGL

What was measured:
CREB-binding protein [1] = biological target: T1, CREB-binding protein (Homo sapiens, UniProt Q92793); assay: Binding affinity to His6-tagged human CBP bromodomain (1081 to 1197 residues) expressed in Escherichia coli BL21 (DE3) assessed as dissociation constant by ITC analysis
CREB-binding protein [2] = biological target: T1, CREB-binding protein; assay: Inhibition of His6-tagged human CBP bromodomain (1081 to 1197 residues) expressed in Escherichia coli BL21 (DE3) incubated for 30 mins by HTRF assay

Kd (CREB-binding protein [1]): 14 nM
IC50 (CREB-binding protein [2]): 2.05 nM
SMILES: CO[C@H]1CC[C@H](n2c([C@@H]3CCCC(=O)N3c3ccc(F)c(F)c3)nc3cc(-c4c(C)noc4C)ccc32)CC1 [INOBRODIB]
